Test results as given in BindingDB's records for doi:10.1074/jbc.M111.292243 (University of Copenhagen, 2012).

Sequences of proteins named here, by UniProt entry; tags and fusion partners are left off.
UniProt P58154, whole entry: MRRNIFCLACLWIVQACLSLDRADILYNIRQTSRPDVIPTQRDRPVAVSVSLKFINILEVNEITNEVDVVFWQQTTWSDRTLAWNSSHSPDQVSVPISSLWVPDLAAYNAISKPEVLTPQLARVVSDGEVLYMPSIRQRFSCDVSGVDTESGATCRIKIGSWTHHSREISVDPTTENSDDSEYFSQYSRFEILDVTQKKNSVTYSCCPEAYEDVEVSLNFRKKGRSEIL

Target: Acetylcholine-binding protein (Lymnaea stagnalis, UniProt P58154)
Experiment: Radioligand Competition Assay

CN1CCC[C@H]1c1cccnc1 [(R,S)-nicotine]
Ki: 83 nM
